The entries are a selection whose mix differs from that of the whole data set. The source made the active and inactive calls.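 Rule for the calls: active = inhibition above about 50% at 20 µM (limit read from the data); inactive = the rest.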
Target: Carboxy-terminal domain RNA polymerase II polypeptide A small phosphatase 1 (Homo sapiens) (UniProt Q9GZU7)
Assay: Scp-1 phosphatase inhibitors, primary screen, biochemical, colorimetric, uHTS (AID 493091);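 note: plate controls were DMSO wells with enzyme for no effect and wells lacking enzyme for full effect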
Details: Recombinant Scp1, phosphopeptide, malachite green phosphate absorbance; at 20 µM; hits give high values
Procedure, shortened: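 assay system = SCP-1 phosphatase catalytic domain, residues 76-261 | buffer or medium = 50 mM Tris acetate pH 5.5, 0.005% Tween-20, 10 mM MgCl2 | incubation = enzyme reaction 45 min at room temperature, colour 5 min, stabilisation 30 min | signal = Phosphate-binding colour reagent, absorbance read at 630 nm | measure = % inhibition at 20 µM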

The chains behind the UniProt entries cited, without tags or fusion partners. Where a name states a change or a piece, a line headed by the entry shows the natural chain unless it says otherwise.
UniProt Q9GZU7: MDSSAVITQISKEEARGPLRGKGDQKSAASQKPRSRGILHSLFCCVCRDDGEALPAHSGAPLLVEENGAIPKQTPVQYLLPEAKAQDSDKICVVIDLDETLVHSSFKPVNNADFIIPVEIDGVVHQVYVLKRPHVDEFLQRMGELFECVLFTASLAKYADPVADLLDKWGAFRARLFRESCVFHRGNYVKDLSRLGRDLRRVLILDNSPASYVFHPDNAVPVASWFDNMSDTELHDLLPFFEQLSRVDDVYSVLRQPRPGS

Question: With `Cc1ccc(OCC(=O)OC2CN3CCC2CC3)cc1` (stereo not given) as the compound, how does the inhibition read?
Answer: Its inhibition is inactive: 2.96%.

Question: `O=P1(Nc2ccc(Br)cn2)COc2ccccc2OC1` was tested. Which inhibition did it give?
Answer: Its inhibition is inactive: -8.38%.

Question: `NS(=O)(=O)c1cccc(NC(=O)COC(=O)C(O)(c2ccccc2)c2ccccc2)c1` was tested. Which inhibition did it give?
Answer: Its inhibition is inactive: -3.29%.

Question: How did the inhibition turn out when `Cc1nn(-c2ccccc2)c2c1P(=O)(N1CCOCC1)N(C)C(c1ccccc1)=N2` (stereo not given) was run?
Answer: Its inhibition is inactive: -2.62%.

Question: With `CC1CCC(C(C)C)C(OP(=O)(Nc2ccccn2)c2ccccc2)C1` (stereo not given) as the compound, how does the inhibition read?
Answer: The inhibition was inactive: 5.59%.

Question: How did the inhibition turn out when `Cc1ccc(C(=O)OC2CN3CCC2CC3)cc1` (stereo not given) was run?
Answer: Its inhibition is inactive: -11%.

Question: For `CN(C)C1(CNC(=O)c2ccc(S(C)(=O)=O)cc2)CCCCC1`, which inhibition is on record?
Answer: Its inhibition is inactive: -8.95%.

Question: `O=C(/C=C/c1ccccc1)OC1CN2CCC1CC2` (stereo not given) was tested. Which inhibition did it give?
Answer: Its inhibition is inactive: 6.53%.

Question: How did the inhibition turn out when `CCCC1OP(=O)(Nc2ccccc2)OCC1CC` (stereo not given) was run?
Answer: Its inhibition is inactive: -9.59%.

Question: Which inhibition does the source give for `NC(=O)Nc1ccc([As](=O)(O)O)cc1` here?
Answer: The inhibition was inactive: 0.8%.

Question: With `N#CCCN(C(=O)COC(=O)C(O)(c1ccccc1)c1ccccc1)c1ccc(F)cc1` as the compound, how does the inhibition read?
Answer: Its inhibition is inactive: -1.18%.

Question: With `CN(C(=O)Cc1ccccc1)[C@@H]1CC[C@]2(CCCO2)C[C@H]1N1CCCC1` as the compound, how does the inhibition read?
Answer: Its inhibition is inactive: -3.76%.

Question: For `CCOP1(=S)c2c(C)nn(CCC#N)c2N=C(c2ccc(F)cc2)N1C` (stereo not given), which inhibition is on record?
Answer: Its inhibition is inactive: 3.54%.

Question: How did the inhibition turn out when `O=[N+]([O-])c1ccc2c(c1)nnn2O` was run?
Answer: Its inhibition is inactive: 0.54%.

Question: Which inhibition does the source give for `CN(C)C(=O)c1cc([N+](=O)[O-])cc2c1-c1c(cc([N+](=O)[O-])cc1[N+](=O)[O-])C2=O` here?
Answer: The inhibition was inactive: -14.9%.

Question: Which inhibition does the source give for `CN(C(=O)Cc1ccc(Cl)c(Cl)c1)[C@H]1CC[C@@]2(CCCO2)C[C@@H]1N1CCCC1` here?
Answer: The inhibition was inactive: 19%.

Question: `CCOP1(=S)c2c(C)nn(CCC#N)c2N=C(c2ccccc2F)N1C` (stereo not given) was tested. Which inhibition did it give?
Answer: The inhibition was inactive: 0.3%.

Question: How did the inhibition turn out when `O=P(Nc1nccs1)(Oc1ccccc1)Oc1ccccc1` was run?
Answer: Its inhibition is inactive: -2.82%.

Question: How did the inhibition turn out when `O=P(Nc1nccs1)(c1ccccc1)c1nc2ccccc2s1` (stereo not given) was run?
Answer: Its inhibition is active: 99%.

Question: How did the inhibition turn out when `CS(=O)(=O)c1cc([N+](=O)[O-])c2no[n+]([O-])c2c1` was run?
Answer: The inhibition was inactive: 27.3%.

Question: With `Nc1ccccc1[As](=O)(O)c1ccccc1` as the compound, how does the inhibition read?
Answer: The inhibition was inactive: 2.54%.

Question: `O=C(O)COc1ccc([As](=O)(O)O)cc1[N+](=O)[O-]` was tested. Which inhibition did it give?
Answer: Its inhibition is inactive: 0.85%.

Question: For `Nc1cccc2c([As](=O)(O)O)cccc12`, which inhibition is on record?
Answer: The inhibition was inactive: 6.32%.

Question: With `Cc1ccc(NCCc2c([N+](=O)[O-])cc([N+](=O)[O-])cc2[N+](=O)[O-])cc1` as the compound, how does the inhibition read?
Answer: The inhibition was inactive: -5.24%.

Question: For `CCCOP(=S)(Nc1nc(N)cc(=O)[nH]1)OCCC`, which inhibition is on record?
Answer: Its inhibition is inactive: -7.74%.

Question: With `COc1cc(C2NCCC3(OCCO3)C2(C)C)cc(OC)c1OC` (stereo not given) as the compound, how does the inhibition read?
Answer: The inhibition was inactive: -2.73%.

Question: Which inhibition does the source give for `CCOP(=O)(Nc1cccc2ccccc12)OCC` here?
Answer: Its inhibition is inactive: -6.33%.

Question: For `O=C(OC1CN2CCC1CC2)c1ccc(Cl)cc1` (stereo not given), which inhibition is on record?
Answer: The inhibition was inactive: -0.65%.

Question: For `O=[As](O)(O)c1cccnc1`, which inhibition is on record?
Answer: The inhibition was inactive: -1.97%.

Question: `COc1cc(C(=O)NCC2(N3CCOCC3)CCCCC2)cc(Cl)c1OC(C)C` was tested. Which inhibition did it give?
Answer: The inhibition was inactive: -1.26%.

Question: `CS(=O)(=O)c1ccc(Cl)c(NC(=O)COC(=O)C(O)(c2ccccc2)c2ccccc2)c1` was tested. Which inhibition did it give?
Answer: The inhibition was inactive: -9.49%.

Question: `Cc1cccc(OCC(=O)OC2CN3CCC2CC3)c1` (stereo not given) was tested. Which inhibition did it give?
Answer: The inhibition was inactive: -1.59%.

Question: For `O=[As](O)(c1cccc(O)c1)c1cccc(O)c1`, which inhibition is on record?
Answer: Its inhibition is inactive: -7.37%.

Question: How did the inhibition turn out when `Cc1ccccc1CN(C)C(=O)COC(=O)C(O)(c1ccccc1)c1ccccc1` was run?
Answer: The inhibition was inactive: -0.14%.

Question: With `C[C@H]1OP(=O)(Oc2ccccc2)C[C@@H]2O[C@@H]21` (stereo not given in full) as the compound, how does the inhibition read?
Answer: The inhibition was inactive: -2.7%.

Question: `C[C@@H]1C=CCP(=O)(Oc2ccccc2)O1` (stereo not given in full) was tested. Which inhibition did it give?
Answer: The inhibition was inactive: -2.33%.

Question: For `CC(=O)c1ccc(N2CC2c2ccncc2)cc1` (stereo not given), which inhibition is on record?
Answer: Its inhibition is inactive: -9.05%.

Question: With `N#C/C(=C\c1ccc(N(CCBr)CCBr)cc1)C(N)=O` as the compound, how does the inhibition read?
Answer: The inhibition was inactive: 7.12%.

Question: How did the inhibition turn out when `COC(=O)C1(C)COP(=O)(NCc2ccccc2)OC1` (stereo not given) was run?
Answer: The inhibition was inactive: 2.17%.

Question: For `CC(=O)Nc1ccc([As](=O)(O)O)c(O)c1`, which inhibition is on record?
Answer: Its inhibition is inactive: -8.45%.

Question: `CC(=O)Nc1ccc(Oc2c([N+](=O)[O-])cc([N+](=O)[O-])cc2[N+](=O)[O-])cc1` was tested. Which inhibition did it give?
Answer: Its inhibition is inactive: -3.02%.

Question: With `O=P1(Nc2nc3ccc(Cl)cc3s2)COc2ccccc2O1` (stereo not given) as the compound, how does the inhibition read?
Answer: Its inhibition is inactive: -4.34%.

Question: `CCOc1ccc(C2=NCC(CBr)S2)cc1` (stereo not given) was tested. Which inhibition did it give?
Answer: The inhibition was inactive: -5.95%.

Question: For `CC(C)(C)C(=O)NC(Sc1ccccc1)C(Cl)(Cl)Cl` (stereo not given), which inhibition is on record?
Answer: Its inhibition is inactive: -1.41%.

Question: How did the inhibition turn out when `CCc1cc(O)c([N+](=O)[O-])c(C)c1[N+](=O)[O-]` was run?
Answer: Its inhibition is inactive: -5.38%.

Question: `O=C(OC1CN2CCC1CC2)c1ccccc1` (stereo not given) was tested. Which inhibition did it give?
Answer: The inhibition was inactive: 0.1%.

Question: For `CCC(=O)N1C2C3N(C(=O)CC)C1C1N(C(=O)CC)C(C(N1C(=O)CC)N3C(=O)CC)N2C(=O)CC`, which inhibition is on record?
Answer: The inhibition was inactive: -0.56%.

Question: Which inhibition does the source give for `COC(=O)c1cc2c(s1)N=C(c1ccccc1)N(C)P2(=O)N1CCOCC1` (stereo not given) here?
Answer: Its inhibition is inactive: 1.08%.

Question: How did the inhibition turn out when `Cc1ccc(OP(=O)(Nc2ccccn2)Oc2ccc(C)cc2)cc1` was run?
Answer: The inhibition was inactive: -1.31%.

Question: Which inhibition does the source give for `CC(=O)NC(SC(=S)N(CC(C)C)CC(C)C)C(Cl)(Cl)Cl` (stereo not given) here?
Answer: The inhibition was inactive: -0.04%.
